In ChEMBL document CHEMBL1133656, “Structural determinants of efficacy for kappa opioid receptors in the orvinol series: 7,7-spiro analogues of buprenorphine” (2000) one finds Ki and EC50 data, which are given here for 3 molecules.

By UniProt entry, the sequences of proteins in these tests, tags left out.
UniProt P41145, whole entry: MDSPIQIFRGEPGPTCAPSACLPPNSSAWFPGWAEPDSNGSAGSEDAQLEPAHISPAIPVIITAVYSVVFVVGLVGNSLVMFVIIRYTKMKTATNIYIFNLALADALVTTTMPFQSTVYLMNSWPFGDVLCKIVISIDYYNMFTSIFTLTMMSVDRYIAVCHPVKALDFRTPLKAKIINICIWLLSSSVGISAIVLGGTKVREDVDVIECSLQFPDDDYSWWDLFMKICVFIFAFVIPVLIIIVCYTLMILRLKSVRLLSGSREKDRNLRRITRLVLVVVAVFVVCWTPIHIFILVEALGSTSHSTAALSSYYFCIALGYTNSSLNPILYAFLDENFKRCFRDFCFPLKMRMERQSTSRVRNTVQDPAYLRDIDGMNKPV
UniProt P41143, whole entry: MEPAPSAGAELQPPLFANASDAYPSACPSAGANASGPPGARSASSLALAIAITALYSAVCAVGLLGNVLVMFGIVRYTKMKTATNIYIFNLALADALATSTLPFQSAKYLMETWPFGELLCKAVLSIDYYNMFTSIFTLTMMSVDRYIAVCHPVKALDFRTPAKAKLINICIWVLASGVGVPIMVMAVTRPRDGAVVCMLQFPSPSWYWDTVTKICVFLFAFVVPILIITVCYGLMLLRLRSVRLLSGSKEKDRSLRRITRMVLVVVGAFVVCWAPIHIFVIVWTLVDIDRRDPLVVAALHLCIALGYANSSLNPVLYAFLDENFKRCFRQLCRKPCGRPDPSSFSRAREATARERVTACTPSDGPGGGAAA
UniProt P35372, whole entry: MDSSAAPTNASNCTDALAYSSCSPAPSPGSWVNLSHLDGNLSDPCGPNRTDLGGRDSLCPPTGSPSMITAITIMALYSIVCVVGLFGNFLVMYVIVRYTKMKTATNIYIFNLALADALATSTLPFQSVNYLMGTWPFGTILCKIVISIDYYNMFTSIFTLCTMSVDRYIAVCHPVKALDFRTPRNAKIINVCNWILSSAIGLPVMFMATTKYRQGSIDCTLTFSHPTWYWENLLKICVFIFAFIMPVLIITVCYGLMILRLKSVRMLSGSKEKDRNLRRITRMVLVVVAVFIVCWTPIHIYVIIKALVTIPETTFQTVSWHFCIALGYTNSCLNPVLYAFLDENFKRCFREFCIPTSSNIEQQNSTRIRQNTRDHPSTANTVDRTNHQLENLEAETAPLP

Usually Ki stands for a dissociation constant, usually derived from enzyme kinetics or from competition with a known ligand. A higher Ki goes with lower affinity. For orientation: EC50 means the concentration that produces a half-maximal response. A lower EC50 goes with an effect from little substance.

Test [1] addresses T1, Kappa-type opioid receptor (Homo sapiens, UniProt P41145). As to the kind of experiment: Binding affinity to cloned human Opioid receptor kappa 1 transfected into hamster ovary cells using [3H]U-69593 as a radioligand.
In test [2] the target is T2, Delta-type opioid receptor (Homo sapiens, UniProt P41143). As to the kind of experiment: Binding affinity to cloned human Opioid receptor delta 1 transfected into hamster ovary cells using [3H]DPDPE as a radioligand.
Test [3] deals with T2, Delta-type opioid receptor. As to the kind of experiment: GTPgammaS binding in cloned human Opioid receptor delta 1 transfected into hamster ovary cells. A general note: Binding of GTPγS marks nucleotide exchange on a G protein.
Test [4] deals with T1, Kappa-type opioid receptor. The experiment in a line: GTPgammaS binding in cloned human Opioid receptor kappa 1 transfected into hamster ovary cells.
Test [5] has as its target T3, Mu-type opioid receptor (Homo sapiens, UniProt P35372). The experiment in a line: GTPgammaS binding in cloned human Opioid receptor mu 1 transfected into hamster ovary cells.
For test [6], the target named is T3, Mu-type opioid receptor. As to the kind of experiment: Binding affinity to cloned human Opioid receptor mu 1 transfected into hamster ovary cells using [3H]DAMGO as a radioligand.

For `CO[C@]12C=CC3(CC14CCC(C)(C)[C@H]4O)C1Cc4ccc(O)c5c4C3(CCN1C)[C@@H]2O5` (stereo partly specified), the inhibition constant Ki was 1.28 nM in test [1] and 8.47 nM in test [2]. In addition, the EC50 in test [3] turned out to be 18.6 nM; in test [4], 1.6 nM.

With `CO[C@]12C=CC3(CC14CCC[C@H]4O)C1Cc4ccc(O)c5c4C3(CCN1CC1CC1)[C@@H]2O5` (stereo partly specified), the Ki in test [1] worked out at 1.04 nM; in test [2] it was 0.69 nM; on Mu-type opioid receptor [6] it was 0.32 nM. Further, the values for the EC50 (at Mu-type opioid receptor [5]; in test [3]; in test [4]) were 2.8 nM, 0.3 nM and 0.04 nM, respectively.

As for `CO[C@]12C=CC3(CC14CCC(C)(C)[C@H]4O)C1Cc4ccc(O)c5c4C3(CCN1CC1CC1)[C@@H]2O5` (stereo partly specified), the Ki is 3.12 nM in test [1], 5.42 nM in test [2] and 0.59 nM on Mu-type opioid receptor [6]. Moreover, the concentration giving a half-maximal response (EC50) turned out to be 4.2 nM on Mu-type opioid receptor [5], 1.1 nM in test [3] and 0.1 nM in test [4].
